Biological target: OATP1B3 (Homo sapiens, UniProt Q9NPD5)
Experiment: Inhibition of [3H]CCK-8 accumulation in human SCH
Format: in vitro ADME
Conditions: for Co-Incubation R / Pre+Co-Incubation R: Hepatocytes, substrate CCK-8, R-value model; for accumulation of [3H]CCK-8 after inhibitor pre-incubation: human SCH, washing

The chains behind the UniProt entries cited, without tags or fusion partners. Where a name states a change or a piece, a line headed by the entry shows the natural chain unless it says otherwise.
UniProt Q9NPD5: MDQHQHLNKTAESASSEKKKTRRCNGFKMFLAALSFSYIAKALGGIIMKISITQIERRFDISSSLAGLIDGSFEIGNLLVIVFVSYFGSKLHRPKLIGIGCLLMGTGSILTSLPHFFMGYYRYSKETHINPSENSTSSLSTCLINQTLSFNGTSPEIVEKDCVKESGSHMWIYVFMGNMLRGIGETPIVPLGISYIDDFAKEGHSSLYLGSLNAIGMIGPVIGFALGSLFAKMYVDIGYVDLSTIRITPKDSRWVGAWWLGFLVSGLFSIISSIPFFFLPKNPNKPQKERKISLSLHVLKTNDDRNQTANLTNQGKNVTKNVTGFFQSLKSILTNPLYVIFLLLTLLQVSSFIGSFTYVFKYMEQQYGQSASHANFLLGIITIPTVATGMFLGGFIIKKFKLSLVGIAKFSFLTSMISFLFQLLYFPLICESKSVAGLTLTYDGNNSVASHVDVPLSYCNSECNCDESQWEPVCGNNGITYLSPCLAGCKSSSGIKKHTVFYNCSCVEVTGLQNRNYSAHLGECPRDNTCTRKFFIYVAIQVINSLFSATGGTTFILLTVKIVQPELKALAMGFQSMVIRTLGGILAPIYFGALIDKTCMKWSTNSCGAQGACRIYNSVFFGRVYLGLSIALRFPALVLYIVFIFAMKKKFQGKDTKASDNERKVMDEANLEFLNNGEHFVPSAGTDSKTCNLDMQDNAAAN

CO[C@H]1C[C@@H]2CC[C@@H](C)[C@@](O)(O2)C(=O)C(=O)N2CCCC[C@H]2C(=O)O[C@H]([C@H](C)C[C@@H]2CC[C@@H](OCCO)[C@H](OC)C2)CC(=O)[C@H](C)/C=C(\C)[C@@H](O)[C@@H](OC)C(=O)[C@H](C)C[C@H](C)/C=C/C=C/C=C/1C [EVR, everolimus]
Co-Incubation R: 1.02 (1.02–1.03)
Pre+Co-Incubation R: 1.08 (1.06–1.10)
accumulation of [3H]CCK-8 after inhibitor pre-incubation (1 h pre-incubation at 0.2 μM, model estimate ± SE): 0.83 ± 0.05 fold of CTL
accumulation of [3H]CCK-8 after inhibitor pre-incubation (1 h pre-incubation at 0.5 μM, model estimate ± SE): 0.65 ± 0.06 fold of CTL

CO[C@H]1C[C@@H]2CC[C@@H](C)[C@@](O)(O2)C(=O)C(=O)N2CCCC[C@H]2C(=O)O[C@H]([C@H](C)C[C@@H]2CC[C@@H](O)[C@H](OC)C2)CC(=O)[C@H](C)/C=C(\C)[C@@H](O)[C@@H](OC)C(=O)[C@H](C)C[C@H](C)/C=C/C=C/C=C/1C [SIR, sirolimus]
Co-Incubation R: 1.00 (1.00–1.00)
Pre+Co-Incubation R: 1.01 (1.00–1.01)
accumulation of [3H]CCK-8 after inhibitor pre-incubation (1 h pre-incubation at 0.6 μM): 0.68 ± 0.07 fold vs. CTL

From paper PMC11005446 (European journal of pharmaceutical sciences : official …, 2021)
